Laboratory results reported in patent publication US7803793B2, “Heterocyclic derived metalloprotease inhibitors” (Janssen Pharmaceutica NV, priority 2006, dated 2010).

Target: T1, MMP-2 (Homo sapiens, UniProt P08253)
T1 construct: Human MMP-2 full length (aa 1-660)
T1 sequence (P08253 30-660): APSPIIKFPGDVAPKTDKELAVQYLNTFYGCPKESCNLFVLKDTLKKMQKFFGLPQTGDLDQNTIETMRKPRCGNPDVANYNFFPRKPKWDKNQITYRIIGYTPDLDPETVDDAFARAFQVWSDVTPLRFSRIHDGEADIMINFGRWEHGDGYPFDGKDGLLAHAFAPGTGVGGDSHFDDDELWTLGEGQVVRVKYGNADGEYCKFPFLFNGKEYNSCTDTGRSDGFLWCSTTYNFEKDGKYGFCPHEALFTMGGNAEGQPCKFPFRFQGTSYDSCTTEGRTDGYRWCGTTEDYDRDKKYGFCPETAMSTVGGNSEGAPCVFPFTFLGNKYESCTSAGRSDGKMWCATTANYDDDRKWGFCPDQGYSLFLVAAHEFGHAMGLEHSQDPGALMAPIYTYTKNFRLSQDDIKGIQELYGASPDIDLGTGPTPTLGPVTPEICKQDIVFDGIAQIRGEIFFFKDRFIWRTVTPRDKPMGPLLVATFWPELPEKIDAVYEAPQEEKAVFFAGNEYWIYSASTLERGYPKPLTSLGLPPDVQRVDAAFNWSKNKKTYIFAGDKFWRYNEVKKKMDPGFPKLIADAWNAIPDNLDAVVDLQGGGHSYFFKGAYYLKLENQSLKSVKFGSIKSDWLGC
Assay: MMP enzymatic assay (Trupoint peptide), MMP-2
Format: biochemical
Details: read-out: MMP-2 nM IC50
Description: [formula] • 1) Prepare appropriate 1×MMP assay buffer from 10× stock. […] Need to prepare a 2.5× concentration stock (2.5 μM) to achieve this concentration in 50 μl. Dilute compound to 2.5 mM in 100% DMSO (a 1:40 dilution), then dilute the 2.5 mM compound to 2.5 μM (1:1000) into 1× assay buffer. Make 1 ml 2.5 μM compound in assay buffer. • 4) Fill the rows B through P of a 384-well plate with assay buffer+0.1% DMSO. • 5) Add 30 ul of the 2.5 μM compound in assay buffer to the top row of the plate, doing each compound in triplicate. The plate setup should be as follows, using GM6001 as plate reference compound:
• 6) Serially dilute 10 μl down the plate to achieve 1:3 dilutions in subsequent wells. After each dilution, change pipette tips to avoid compound carryover. Discard the remaining 10 μl after diluting into the final row. • 7) Prepare enzyme dilutions at 2.5× of final desired concentration (see below). Will need 10 ml enzyme solution per plate. Add enzyme to plate, 20 μl per well. Incubate 1 hr.
• 8) Dilute the 500 μM Trupoint peptide 1:1000 into assay buffer to achieve a 5× working stock of 500 nM. Prepare 5 ml total per plate. Add 10 ul of substrate to each well to achieve a final concentration of 100 nM in well. […] Read in plate reader. […]

O=C1[C@H](NS(=O)(=O)c2ccc(Oc3ccc(Cl)cc3)cc2)CCCN1O [Compound 57, (R)-4-(4-Chloro-phenoxy)-N-(1-hydroxy-2-oxo-piperidin-3-yl)-benzene-sulfonamide]
IC50: 108 nM
